Experimental data reported in patent US10053458B2, “Pyrimidine-2,4-diamine derivative and anticancer pharmaceutical composition comprising same as effective ingredient” (KOREA RESEARCH INSTITUTE OF CHEMICAL TECHNOLOGY, priority 2014, dated 2018).

The chains behind the UniProt entries cited, without tags or fusion partners. Residues count along the entry.
UniProt Q9UM73, 19-1620: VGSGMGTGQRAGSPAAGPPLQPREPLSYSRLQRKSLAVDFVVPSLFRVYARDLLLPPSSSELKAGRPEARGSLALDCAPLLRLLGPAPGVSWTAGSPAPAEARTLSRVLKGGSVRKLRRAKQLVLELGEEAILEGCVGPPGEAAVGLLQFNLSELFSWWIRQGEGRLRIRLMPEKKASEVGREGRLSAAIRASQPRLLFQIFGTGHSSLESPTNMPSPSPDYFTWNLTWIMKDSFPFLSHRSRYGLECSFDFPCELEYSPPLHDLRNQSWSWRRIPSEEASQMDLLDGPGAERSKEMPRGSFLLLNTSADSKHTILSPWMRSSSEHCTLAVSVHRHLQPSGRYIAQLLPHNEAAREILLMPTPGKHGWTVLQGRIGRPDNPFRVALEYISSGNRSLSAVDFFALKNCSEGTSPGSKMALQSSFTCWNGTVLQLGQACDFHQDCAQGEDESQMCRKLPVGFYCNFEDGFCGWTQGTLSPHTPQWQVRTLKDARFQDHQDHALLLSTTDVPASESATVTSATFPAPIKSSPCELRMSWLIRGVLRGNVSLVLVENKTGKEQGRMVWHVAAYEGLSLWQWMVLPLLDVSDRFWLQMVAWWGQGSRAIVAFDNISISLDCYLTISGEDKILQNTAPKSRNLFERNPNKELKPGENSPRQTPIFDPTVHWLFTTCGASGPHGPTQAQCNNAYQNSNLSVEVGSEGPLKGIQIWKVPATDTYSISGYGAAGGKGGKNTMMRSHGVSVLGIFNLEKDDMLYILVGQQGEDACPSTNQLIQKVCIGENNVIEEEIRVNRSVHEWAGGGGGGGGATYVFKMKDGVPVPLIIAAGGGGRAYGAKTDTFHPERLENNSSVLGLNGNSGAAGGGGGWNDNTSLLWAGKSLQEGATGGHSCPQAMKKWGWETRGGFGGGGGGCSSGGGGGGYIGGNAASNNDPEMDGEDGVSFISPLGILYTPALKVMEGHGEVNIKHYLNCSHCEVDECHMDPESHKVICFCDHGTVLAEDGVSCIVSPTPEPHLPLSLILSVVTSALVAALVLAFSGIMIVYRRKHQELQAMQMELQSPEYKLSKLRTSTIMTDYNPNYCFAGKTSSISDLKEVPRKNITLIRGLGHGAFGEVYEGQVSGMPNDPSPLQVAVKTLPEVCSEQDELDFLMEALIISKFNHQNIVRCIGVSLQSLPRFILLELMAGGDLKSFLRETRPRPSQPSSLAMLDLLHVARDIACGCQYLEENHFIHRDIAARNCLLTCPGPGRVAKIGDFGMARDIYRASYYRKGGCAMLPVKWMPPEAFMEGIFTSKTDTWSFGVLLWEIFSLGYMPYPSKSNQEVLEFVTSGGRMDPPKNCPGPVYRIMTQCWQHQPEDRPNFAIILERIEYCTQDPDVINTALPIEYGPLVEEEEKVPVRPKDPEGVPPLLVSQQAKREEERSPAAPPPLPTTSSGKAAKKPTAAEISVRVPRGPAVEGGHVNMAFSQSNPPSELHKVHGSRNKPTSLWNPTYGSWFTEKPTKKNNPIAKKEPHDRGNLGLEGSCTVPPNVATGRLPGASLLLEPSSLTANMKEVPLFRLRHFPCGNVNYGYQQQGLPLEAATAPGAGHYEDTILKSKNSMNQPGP

The compounds below were run against ALK wt. (Homo sapiens (Human), UniProt Q9UM73) (assay: ALK enzyme inhibitory activity (HTRF kinase assay), ALK wt.). Conditions: read-out: ALK wt. IC50.

Question: `COc1cc2c(cc1Nc1ncc(Cl)c(Nc3ccccc3S(=O)(=O)C(C)C)n1)CNC2` [Example 1, 5-chloro-N4-(2-(isopropylsulfonyl)phenyl)-N2-(6-methoxyisoindolin-5-yl)pyrimidine-2,4-diamine] was tested. Which IC50 did it give?
Answer: The IC50 was < 10 nM.

Question: Which IC50 does the source give for `CCN1CCc2cc(Nc3ncc(Cl)c(Nc4ccccc4S(=O)(=O)C(C)C)n3)c(OC(C)C)cc2C1(C)C` [Example 79] here?
Answer: Its IC50 is < 10 nM.

Same assay, conditions: read-out: ALK wt. IC50; enzyme level, HTRF

Question: How did the IC50 turn out when `COc1cc2c(cc1Nc1ncc(Cl)c(Nc3ccccc3S(=O)(=O)C(C)C)n1)C(C)(C)CN(C(=O)C(F)(F)F)C2` [Example 11, 1-(6-(5-chloro-4-(2-(isopropylsulfonyl)phenylamino)pyrimidin-2-yl)amino-7-methoxy-4,4-dimethyl-3,4-dihydroisoquinolin-2(1H)-yl)-2,2,2-trifluoroethane-1-one] was run?
Answer: The IC50 was < 10 nM.

Question: With `COc1cc2c(cc1Nc1ncc(Cl)c(Nc3ccccc3S(=O)(=O)C(C)C)n1)C(C)(C)CNC2` [Example 12] as the compound, how does the IC50 read?
Answer: The IC50 was < 10 nM.

Question: How did the IC50 turn out when `COc1cc2c(cc1Nc1ncc(Cl)c(Nc3ccccc3S(=O)(=O)C(C)C)n1)C1(CCCCC1)CN(C(=O)C(F)(F)F)C2` [Example 15, 1-(6-(5-chloro-4-(2-(isopropylsulfonyl)phenylamino)pyrimidin-2-yl)amino-7-methoxy-1H-spiro[cyclohexane-1,4-isoquinoline]-2(3H)-yl)-2,2,2-trifluoroethane-1-one] was run?
Answer: Its IC50 is < 10 nM.

Question: `COc1cc2c(cc1Nc1ncc(Cl)c(Nc3ccccc3S(=O)(=O)C(C)C)n1)C1(CCCCC1)CNC2` [Example 16, 5-chloro-N4-(2-(isopropylsulfonyl)phenyl)-N2-(7-methoxy-2,3-dihydro-1H-spiro[cyclohexane-1,4-isoquinoline]-6-yl)pyrimidine-2,4-diamine] was tested. Which IC50 did it give?
Answer: The IC50 was < 10 nM.

Question: For `CC(C)Oc1cc2c(cc1Nc1ncc(Cl)c(Nc3ccccc3S(=O)(=O)C(C)C)n1)CCN(C(=O)C(F)(F)F)C2` [Example 17, 1-(6-(5-chloro-4-(2-(isopropylsulfonyl)phenylamino)pyrimidin-2-yl)amino-7-isopropoxy-3,4-dihydroisoquinolin-2(1H)-yl)-2,2,2-trifluoroethane-1-one], which IC50 is on record?
Answer: Its IC50 is < 10 nM.

Question: How did the IC50 turn out when `CC(C)COc1cc2c(cc1Nc1ncc(Cl)c(Nc3ccccc3S(=O)(=O)C(C)C)n1)CCN(C(=O)C(F)(F)F)C2` [Example 19, 1-(6-(5-chloro-4-(2-(isopropylsulfonyl)phenylamino)pyrimidin-2-yl)amino-7-isobutoxy-3,4-dihydroisoquinolin-2(1H)-yl)-2,2,2-trifluoroethane-1-one] was run?
Answer: The IC50 was < 10 nM.

Question: Which IC50 does the source give for `CCC(C)Oc1cc2c(cc1Nc1ncc(Cl)c(Nc3ccccc3S(=O)(=O)C(C)C)n1)CCN(C(=O)C(F)(F)F)C2` (stereo not shown) [Example 21] here?
Answer: Its IC50 is < 10 nM.

Question: For `COc1cc2c(cc1Nc1ncc(Cl)c(Nc3ccccc3S(=O)(=O)C(C)C)n1)CCN(C1CCNCC1)C2` [Example 24], which IC50 is on record?
Answer: Its IC50 is < 10 nM.

Question: How did the IC50 turn out when `COc1cc2c(cc1Nc1ncc(Cl)c(Nc3ccccc3S(=O)(=O)C(C)C)n1)CCNC2C(F)(F)F` (stereo not shown) [Example 26] was run?
Answer: Its IC50 is < 10 nM.

Question: Which IC50 does the source give for `COc1cc2c(cc1Nc1ncc(Cl)c(Nc3ccccc3S(=O)(=O)C(C)C)n1)CC1(CC1)N(C(=O)C(F)(F)F)C2C` (stereo not shown) [Example 29] here?
Answer: Its IC50 is < 10 nM.

Question: For `COc1cc2c(cc1Nc1ncc(Cl)c(Nc3ccccc3S(=O)(=O)C(C)C)n1)CC1(CC1)NC2C` (stereo not shown) [Example 30, 5-chloro-N4-(2-(isopropylsulfonyl)phenyl)-N2-(7-methoxy-1methyl-1,4-dihydro-2H-spiro[cyclopropane-1,3-isoquinoline]-6-yl)pyrimidine-2,4-diamine], which IC50 is on record?
Answer: The IC50 was < 10 nM.

Question: How did the IC50 turn out when `COc1cc2c(cc1Nc1ncc(Cl)c(Nc3ccccc3S(=O)(=O)C(C)C)n1)CCN(Cc1ccccc1)C2(C)C` [Example 31] was run?
Answer: The IC50 was < 10 nM.

Question: Which IC50 does the source give for `COc1cc2c(cc1Nc1ncc(Cl)c(Nc3ccccc3S(=O)(=O)C(C)C)n1)CCN(C(=O)C(F)(F)F)C2(C)C` [Example 32, 1-(6-(5-chloro-4-(2-(isopropylsulfonyl)phenylamino)pyrimidin-2-yl)amino-7-methoxy-1,1-dimethyl-3,4-dihydroisoquinolin-2(1H)-yl)-2,2,2-trifluoroethane-1-one] here?
Answer: Its IC50 is < 10 nM.

Question: With `CC(C)Oc1cc2c(cc1Nc1ncc(Cl)c(Nc3ccccc3S(=O)(=O)C(C)C)n1)CCNC2C` (stereo not shown) [Example 70] as the compound, how does the IC50 read?
Answer: Its IC50 is < 10 nM.

Question: `CC(C)Oc1cc2c(cc1Nc1ncc(Cl)c(Nc3ccccc3S(=O)(=O)C(C)C)n1)CCNC2(C)C` [Example 71] was tested. Which IC50 did it give?
Answer: The IC50 was < 10 nM.

Question: How did the IC50 turn out when `COc1cc2c(cc1Nc1ncc(Cl)c(Nc3ccccc3S(=O)(=O)C(C)C)n1)C(C)(C)NCC2` [Example 72] was run?
Answer: Its IC50 is < 10 nM.

Question: `CCC1(C)NCCc2cc(Nc3ncc(Cl)c(Nc4ccccc4S(=O)(=O)C(C)C)n3)c(OC)cc21` (stereo not shown) [Example 73] was tested. Which IC50 did it give?
Answer: Its IC50 is < 10 nM.

Question: `CCC1(CC)NCCc2cc(Nc3ncc(Cl)c(Nc4ccccc4S(=O)(=O)C(C)C)n3)c(OC)cc21` [Example 74] was tested. Which IC50 did it give?
Answer: The IC50 was < 10 nM.

Question: For `COc1cc2c(cc1Nc1ncc(Cl)c(Nc3ccccc3S(=O)(=O)C(C)C)n1)CNCC2(C)C` [Example 75], which IC50 is on record?
Answer: Its IC50 is < 10 nM.

Question: With `COc1cc2c(cc1Nc1ncc(Cl)c(Nc3ccccc3S(=O)(=O)C(C)C)n1)CCNC2C(=O)O` (stereo not shown) [Example 76, 6-(5-chloro-4-(2-(isopropylsulfonyl)phenylamino)pyrimidin-2-yl)amino-7-methoxy-1,2,3,4-dihydroisoquinoline-1-carboxylic acid] as the compound, how does the IC50 read?
Answer: Its IC50 is < 10 nM.

Question: How did the IC50 turn out when `CCN1CCc2cc(Nc3ncc(Cl)c(Nc4ccccc4S(=O)(=O)C(C)C)n3)c(OC)cc2C1(C)C` [Example 77] was run?
Answer: The IC50 was < 10 nM.

Question: How did the IC50 turn out when `COc1cc2c(cc1Nc1ncc(Cl)c(Nc3ccccc3S(=O)(=O)C(C)C)n1)CCN(C(=O)CO)C2(C)C` [Example 78, 1-6-(5-chloro-4-(2-(isopropylsulfonyl)phenylamino)pyrimidin-2-yl)amino-7-methoxy-1,1-dimethyl-3,4-dihydroisoquinolin-2(1H)-yl-2-hydroxyethane-1-one] was run?
Answer: Its IC50 is < 10 nM.

Question: `CC(C)Oc1cc2c(cc1Nc1ncc(Cl)c(Nc3ccccc3S(=O)(=O)C(C)C)n1)CNCC2(C)C` [Example 80] was tested. Which IC50 did it give?
Answer: Its IC50 is < 10 nM.

Question: For `CCOc1cc2c(cc1Nc1ncc(Cl)c(Nc3ccccc3S(=O)(=O)C(C)C)n1)CN(CC)CC2(C)C` [Example 81], which IC50 is on record?
Answer: The IC50 was < 10 nM.

Question: With `CCN1Cc2cc(Nc3ncc(Cl)c(Nc4ccccc4S(=O)(=O)C(C)C)n3)c(OC(C)C)cc2C(C)(C)C1` [Example 82] as the compound, how does the IC50 read?
Answer: The IC50 was < 10 nM.

Question: With `COc1cc2c(cc1Nc1ncc(Cl)c(Nc3ccccc3S(=O)(=O)C(C)C)n1)CNCC21CCCC1` [Example 83, 5-chloro-N4-(2-(isopropylsulfonyl)phenyl)-N2-(6-methoxy-2,3-dihydro-1H-spiro(cyclopentane-1,4-isoquinolin)-7-yl)pyrimidine-2,4-diamine] as the compound, how does the IC50 read?
Answer: The IC50 was < 10 nM.

Question: Which IC50 does the source give for `COc1cc2c(cc1Nc1ncc(Cl)c(Nc3ccccc3S(=O)(=O)C(C)C)n1)C1CNCC(=O)N1CC2(C)C` (stereo not shown) [Example 85] here?
Answer: The IC50 was < 10 nM.

Question: How did the IC50 turn out when `COc1cc2c(cc1Nc1ncc(Cl)c(Nc3ccccc3S(=O)(=O)C(C)C)n1)C1CNCCN1CC2(C)C` (stereo not shown) [Example 86, 5-chloro-N4-(2-(isopropylsulfonyl)phenyl)-N2-(9-methoxy-7,7-dimethyl-1,3,4,6,7,11b-hexahydro-2H-pyrazino[2,1-a]isoquinolin-10-yl)pyrimidine-2,4-diamine] was run?
Answer: Its IC50 is < 10 nM.

Question: For `COc1cc2c(c(Br)c1Nc1ncc(Cl)c(Nc3ccccc3S(=O)(=O)C(C)C)n1)CCNC2(C)C` [Example 87], which IC50 is on record?
Answer: The IC50 was < 10 nM.

Question: Which IC50 does the source give for `COc1cc2c(c(Cl)c1Nc1ncc(Cl)c(Nc3ccccc3S(=O)(=O)C(C)C)n1)CCNC2(C)C` [Example 88] here?
Answer: Its IC50 is < 10 nM.

Question: For `COc1c(Nc2ncc(Cl)c(Nc3ccccc3S(=O)(=O)C(C)C)n2)cc2c(c1Br)C(C)(C)NCC2` [Example 89], which IC50 is on record?
Answer: Its IC50 is < 10 nM.

Question: Which IC50 does the source give for `COc1c(Nc2ncc(Cl)c(Nc3ccccc3S(=O)(=O)C(C)C)n2)cc2c(c1Cl)C(C)(C)NCC2` [Example 90] here?
Answer: Its IC50 is < 10 nM.

Question: How did the IC50 turn out when `COc1cc2c(cc1Nc1ncc(Cl)c(Nc3ccccc3S(=O)(=O)C(C)C)n1)CN(C)CC2(C)C` [Example 91] was run?
Answer: The IC50 was < 10 nM.

Question: With `CCN1Cc2cc(Nc3ncc(Cl)c(Nc4ccccc4S(=O)(=O)C(C)C)n3)c(OC)cc2C(C)(C)C1` [Example 92] as the compound, how does the IC50 read?
Answer: The IC50 was < 10 nM.

Question: For `COc1cc2c(cc1Nc1ncc(Cl)c(Nc3ccccc3S(=O)(=O)C(C)C)n1)CN(C(=O)CN(C)C)CC2(C)C` [Example 94], which IC50 is on record?
Answer: The IC50 was < 10 nM.

Question: Which IC50 does the source give for `COc1cc2c(cc1Nc1ncc(Cl)c(Nc3ccccc3S(=O)(=O)C(C)C)n1)CN(C(=O)CO)CC2(C)C` [Example 95] here?
Answer: Its IC50 is < 10 nM.

Question: How did the IC50 turn out when `COc1cc2c(cc1Nc1ncc(Cl)c(Nc3ccccc3S(=O)(=O)C(C)C)n1)CNCC21CC1` [Example 96, 5-chloro-N4-(2-(isopropylsulfonyl)phenyl)-N2-(6-methoxy-2,3-dihydro-1H-spiro(cyclopropane-1,4-isoquinolin)-7-yl)pyrimidine-2,4-diamine] was run?
Answer: Its IC50 is < 10 nM.

Question: `CCCC1NCCc2cc(Nc3ncc(Cl)c(Nc4ccccc4S(=O)(=O)C(C)C)n3)c(OC)cc21` (stereo not shown) [Example 102] was tested. Which IC50 did it give?
Answer: Its IC50 is < 10 nM.

Question: For `COc1cc2c(cc1Nc1ncc(Cl)c(Nc3ccccc3S(=O)(=O)C(C)C)n1)CCCNC2(C)C` [Example 104, 5-chloro-N4-(2-(isopropylsulfonyl)phenyl)-N2-(8-methoxy-1,1-dimethyl-2,3,4,5-tetrahydro-1H-benzo[c]azepin-7-yl)pyrimidine-2,4-diamine], which IC50 is on record?
Answer: The IC50 was < 10 nM.

Question: How did the IC50 turn out when `COc1cc2c(cc1Nc1ncc(Cl)c(Nc3ccccc3S(=O)(=O)C(C)C)n1)CCNCC2(C)C` [Example 105, 5-chloro-N4-(2-(isopropylsulfonyl)phenyl)-N2-(8-methoxy-1,1-dimethyl-2,3,4,5-tetrahydro-1H-benzo[d]azepin-7-yl)pyrimidine-2,4-diamine] was run?
Answer: The IC50 was < 10 nM.

Question: For `COc1cc2c(cc1Nc1ncc(Cl)c(Nc3ccccc3S(=O)(=O)C(C)C)n1)CNC2(C)C` [Example 106, 5-chloro-N4-(2-(isopropylsulfonyl)phenyl)-N2-(6-methoxy-1,1-dimethylisoindolin-5-yl)pyrimidine-2,4-diamine], which IC50 is on record?
Answer: The IC50 was < 10 nM.
